{"source": "patent US20120045523A1", "about": "“COMBINATION OF A TLR3 LIGAND AND A CHEMOTHERAPY AGENT WHICH ACTS ON THE INTRINSIC \"APOPTOSIS\" PATHWAY IN THE TREATMENT OF CANCER” (UNIVERSITE CLAUDE BERNARD LYON I, priority 2008, published 2012)", "tested_on": "NCI-H292 cells", "test": "Number of living cells (MTS, CellTiter 96 AQueous One) after chemotherapy and/or poly(I:C)", "details": "agent in combination with poly(I:C), average CI"}
{"smiles": "O=C1[O][Pt]2([NH][C@@H]3CCCC[C@H]3[NH]2)[O]C1=O", "note": "[Oxaliplatin, oxaliplatin]", "values": [{"measurement": "CI (combination index)", "result": "0.63 ± 0.19"}]}
